This passage reports pKa and logD results from ChEMBL document CHEMBL1124682, “Quaternary salts of 2-[(hydroxyimino)methyl]imidazole. 3. Synthesis and evaluation of (alkenyloxy)-, (alkynyloxy)-, and (aralkyloxy)methyl quaternarized 2-[(hydroxyimino)methyl]-1-alkylimidazolium halides as reactivators and therapy for soman intoxication” (1989).

The nature of data set [1]: Ionization constant (pKa).
The nature of data set [2]: Partition coefficient (logD7.6). As to conditions: octanol/water, pH 7.6.

As to `C#CC(C)OC[n+]1ccn(C)c1/C=N/O.[Cl-]` (stereo not given), the pKa in data set [1] came to 7.96. The compound further yielded a logD in data set [2] of -2.14.
For `CC(C#Cc1ccccc1)COC[n+]1ccn(C)c1/C=N/O.[Cl-]` (stereo not given), in that order: 7.99 and -0.05.
For `C=C(C)CCOC[n+]1ccn(C)c1/C=N/O.[Cl-]`, in that order: 8.03 and -1.41.
For `C#CCCCC[n+]1ccn(C)c1/C=N/O.[Cl-]`, in that order: 8.18 and -2.02.
`C=C(C)CC(OC[n+]1ccn(C)c1/C=N/O)C(=C)C.[Cl-]` (stereo not given) returned a pKa in data set [1] of 7.91. The compound also came in with a logD in data set [2] of -0.62.
`CCC(C#Cc1ccccc1)OC[n+]1ccn(C)c1/C=N/O.[Cl-]` (stereo not given) gave a pKa in data set [1] of 8.06. Moreover, the logD in data set [2] is 0.31.
Regarding `C#CCCCC[n+]1cn(C)c(/C=N/O)n1.[Cl-]`, the pKa in data set [1] came to 7.34. Besides, the logD in data set [2] is -1.56.
The like results for `C=CCOC[n+]1ccn(C)c1/C=N/O.[Cl-]` were, in that order, 8.04 and -2.5.
In turn, `C=CC(CCC)OC[n+]1ccn(C)c1/C=N/O.[Cl-]` (stereo not given) gave a pKa in data set [1] of 7.99. Also, in data set [2], the logD was -0.87.
For `Cn1cc[n+](COCc2ccc(C(F)(F)F)cc2)c1/C=N/O.[Cl-]`, the pKa in data set [1] turned out to be 8.06. Moreover, the logD in data set [2] was -0.18.
For `CCC/C=C/COC[n+]1ccn(C)c1/C=N/O.[Cl-]`, in that order: 8 and -0.7.
The like results for `C=C(C)COC[n+]1ccn(C)c1/C=N/O.[Cl-]` were, in that order, 7.99 and -1.83.
`C=CCCOC[n+]1ccn(C)c1/C=N/O.[Cl-]`: the pKa in data set [1] was determined as 7.97. Also, in data set [2], the logD was -1.84.
For `Cn1cc[n+](COC(c2ccccc2)C2CCCC2)c1/C=N/O.[Cl-]` (stereo not given), in that order: 8.03 and 0.38.
The compound `C#CCCCC[n+]1ccn(COC)c1/C=N/O.[Cl-]` gave a pKa in data set [1] of 8.23. For the same compound, the pH-dependent lipophilicity (logD) in data set [2] was -1.71.
The like results for `C#CCC(CCC)OC[n+]1ccn(C)c1/C=N/O.[Cl-]` (stereo not given) were, in that order, 7.92 and -1.17.
For `CC(C)=CCOC[n+]1ccn(C)c1/C=N/O.[Cl-]`, in that order: 8.04 and -1.4.
`CCC(CC#Cc1ccccc1)OC[n+]1ccn(C)c1/C=N/O.[Cl-]` (stereo not given) gave a pKa in data set [1] of 8.07. Besides, the logD in data set [2] is 0.21.
For `C#CCC(OC[n+]1ccn(C)c1/C=N/O)c1ccccc1.[Cl-]` (stereo not given), in that order: 7.99 and -1.05.
For `C#CC(CC)OC[n+]1ccn(C)c1/C=N/O.[Cl-]` (stereo not given), in that order: 7.99 and -1.49.
For `C=CC(C)(C)OC[n+]1ccn(C)c1/C=N/O.[Cl-]`, in that order: 7.94 and -1.54.
For the compound `C=C=CCOC[n+]1ccn(C)c1/C=N/O.[Cl-]`, the pKa in data set [1] is 8.03.
In data set [1], `C#CCCOC[n+]1ccn(C)c1/C=N/O.[Cl-]` came in with a pKa of 7.99. The compound also gave a pH-dependent lipophilicity (logD) in data set [2] of -2.36.
For `CC#CC(C)OC[n+]1ccn(C)c1/C=N/O.[Cl-]` (stereo not given), in that order: 8.03 and -1.74.
The like results for `Cn1cc[n+](COCc2cccc3c2CCCC3)c1/C=N/O.[Cl-]` were, in that order, 8.13 and 0.07.
For `C#CC(CCC)OC[n+]1ccn(C)c1/C=N/O.[Cl-]` (stereo not given), in that order: 8.02 and -1.1.
In data set [1], `C#CCCCC[n+]1ccc(/C=N/O)cc1.[Cl-]` gave a pKa of 8.36. In addition, the logD in data set [2] is -2.32.
For `Cn1cc[n+](COC/C=C/C(C)(C)C)c1/C=N/O.[Cl-]`, in that order: 8.04 and -0.47.
For `C#CC1CCCCC1OC[n+]1ccn(C)c1/C=N/O.[Cl-]` (stereo not given), in that order: 8.03 and -1.7.
Regarding `C#CC(C)C(C)OC[n+]1ccn(C)c1/C=N/O.[Cl-]` (stereo not given), the pKa in data set [1] is 8. Further, the pH-dependent lipophilicity (logD) in data set [2] was -1.55.
The like results for `CCCC(OC[n+]1ccn(C)c1/C=N/O)c1ccccc1.[Cl-]` (stereo not given) were, in that order, 8.03 and -0.13.
For `C#CCCOC[n+]1ccn(C(C)(C)C)c1/C=N/O.[Cl-]`, in that order: 7.84 and -1.84.
The like results for `C/C=C/COC[n+]1ccn(C)c1/C=N/O.[Cl-]` were, in that order, 8.07 and -1.54.
In the case of `C#CCCCC[n+]1ccccc1/C=N/O.[Cl-]`, the pKa in data set [1] came to 7.93. This compound also returned a logD in data set [2] of -1.94.
The like results for `C#CCCCC[n+]1ccn(C(C)(C)C)c1/C=N/O.[Cl-]` were, in that order, 8.06 and -1.42.
The compound `Cn1cc[n+](COC/C=C/c2ccccc2)c1/C=N/O.[Cl-]` came in with a pKa in data set [1] of 8.01. For the same compound, the logD in data set [2] is -0.55.
The like results for `Cn1cc[n+](COCCCCc2ccccc2)c1/C=N/O.[Cl-]` were, in that order, 8.05 and -0.04.
In turn, `Cn1cc[n+](COCc2ccc(F)cc2)c1/C=N/O.[Cl-]` came in with a pKa in data set [1] of 7.98. The compound further displayed a logD in data set [2] of -1.12.
The like results for `CC/C=C/CCOC[n+]1ccn(C)c1/C=N/O.[Cl-]` were, in that order, 7.99 and -0.76.
For `CC#CC(C)(C)OC[n+]1ccn(C)c1/C=N/O.[Cl-]`, in that order: 7.96 and -1.36.
The like results for `C/C=C\COC[n+]1ccn(C)c1/C=N/O.[Cl-]` were, in that order, 8.04 and -1.93.
The compound `C#CCC(C)OC[n+]1ccn(C)c1/C=N/O.[Cl-]` (stereo not given) came in with a pKa in data set [1] of 8.03. The compound further had a logD in data set [2] of -2.1.
For `C#CCCOC[n+]1ccc(/C=N/O)cc1.[Cl-]`, in that order: 8.18 and -2.72.
